Assay results reported in article PMC9917735, “Optimization of the Hemolysis Assay for the Assessment of Cytotoxicity” (International Journal of Molecular Sciences, 2023).
Converted amounts (≈) assume the structure as drawn.

Test system: E. coli

CC[C@H](C)[C@H](NC(=O)CN)C(=O)NCC(=O)N[C@@H](C)C(=O)N[C@H](C(=O)N[C@@H](CC(C)C)C(=O)N[C@@H](CCCCN)C(=O)N[C@H](C(=O)N[C@@H](CC(C)C)C(=O)N[C@H](C(=O)N[C@H](C(=O)NCC(=O)N[C@@H](CC(C)C)C(=O)N1CCC[C@H]1C(=O)N[C@@H](C)C(=O)N[C@@H](CC(C)C)C(=O)N[C@H](C(=O)N[C@@H](CO)C(=O)N[C@@H](Cc1c[nH]c2ccccc12)C(=O)N[C@H](C(=O)N[C@@H](CCCCN)C(=O)N[C@@H](CCCNC(=N)N)C(=O)N[C@@H](CCCCN)C(=O)N[C@@H](CCCNC(=N)N)C(=O)N[C@@H](CCC(N)=O)C(=O)N[C@@H](CCC(N)=O)C(N)=O)[C@@H](C)CC)[C@@H](C)CC)[C@@H](C)O)[C@@H](C)O)C(C)C)C(C)C [Melittin, reference compound]
Minimum inhibitory concentration (E. coli): 8 µM (≈ 22.8 µg/mL)
